Assay results: ChEMBL document CHEMBL4190182 (Medchemcomm, 2016)

The chains behind the UniProt entries cited, without tags or fusion partners. Where a name states a change or a piece, a line headed by the entry shows the natural chain unless it says otherwise.
UniProt Q60492, whole entry, looked up: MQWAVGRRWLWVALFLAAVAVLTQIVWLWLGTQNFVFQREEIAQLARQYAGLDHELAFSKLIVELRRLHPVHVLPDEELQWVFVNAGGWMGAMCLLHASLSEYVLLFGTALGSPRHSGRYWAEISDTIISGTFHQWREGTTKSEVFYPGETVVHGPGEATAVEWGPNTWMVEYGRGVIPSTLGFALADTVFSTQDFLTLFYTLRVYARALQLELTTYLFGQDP
UniProt P41144: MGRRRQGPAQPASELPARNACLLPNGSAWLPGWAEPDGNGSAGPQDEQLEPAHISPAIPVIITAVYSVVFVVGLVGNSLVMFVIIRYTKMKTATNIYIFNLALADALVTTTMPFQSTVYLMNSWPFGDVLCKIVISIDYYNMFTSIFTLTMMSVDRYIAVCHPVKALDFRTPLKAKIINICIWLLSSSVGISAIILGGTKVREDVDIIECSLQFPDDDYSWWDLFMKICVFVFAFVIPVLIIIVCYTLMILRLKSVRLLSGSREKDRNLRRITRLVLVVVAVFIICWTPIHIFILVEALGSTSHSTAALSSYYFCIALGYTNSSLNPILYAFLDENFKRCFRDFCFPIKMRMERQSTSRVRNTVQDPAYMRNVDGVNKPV
UniProt P97266, whole entry, looked up: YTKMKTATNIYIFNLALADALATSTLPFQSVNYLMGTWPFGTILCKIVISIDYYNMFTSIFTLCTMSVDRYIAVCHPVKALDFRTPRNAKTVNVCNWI
UniProt P33533, whole entry, looked up: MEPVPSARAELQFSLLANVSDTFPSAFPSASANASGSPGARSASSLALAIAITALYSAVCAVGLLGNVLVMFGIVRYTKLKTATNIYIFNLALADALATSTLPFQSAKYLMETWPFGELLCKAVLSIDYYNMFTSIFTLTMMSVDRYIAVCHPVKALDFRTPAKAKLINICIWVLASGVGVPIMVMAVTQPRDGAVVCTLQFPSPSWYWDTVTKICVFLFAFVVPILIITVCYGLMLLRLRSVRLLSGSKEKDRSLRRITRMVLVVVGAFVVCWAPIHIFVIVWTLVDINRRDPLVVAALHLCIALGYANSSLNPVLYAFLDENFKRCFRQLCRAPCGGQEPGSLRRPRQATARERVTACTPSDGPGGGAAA

What was measured:
[1] = target: Sigma non-opioid intracellular receptor 1 (Cavia porcellus, UniProt Q60492)
[2] = target: Kappa-type opioid receptor (Cavia porcellus, UniProt P41144)
[3] = target: Mu-type opioid receptor (Cavia porcellus, UniProt P97266); experiment: Displacement of [3H]DAMGO from mu opioid receptor in guinea pig brain membranes after 120 mins by scintillation counting analysis
[4] = target: Delta-type opioid receptor (Rattus norvegicus, UniProt P33533); experiment: Displacement of [3H]DPDPE from delta opioid receptor in Sprague-Dawley rat brain membranes after 120 mins by scintillation counting analysis; conditions: strain Sprague-Dawley

For O=C(Cc1ccc(Cl)c(Cl)c1)N1CC2OCCN(C(=O)Cc3ccc(Cl)c(Cl)c3)C2C(N2CCCC2)C1 (racemic), the Ki [1] was 0.991 µM, the Ki [2] was > 1 µM and the Ki [3] was > 1 µM. For the same compound, the Ki [4] was > 1 µM.
